Results published in publication PMC8146637, “Enhanced Bioavailability and Efficacy of Silymarin Solid Dispersion in Rats with Acetaminophen-Induced Hepatotoxicity” (Pharmaceutics, 2021).

Experiment: Effect of various excipients on silymarin solubility
Format: physicochemical
Procedure: The effect of various excipients on the silymarin solubility was measured. […] Mixtures were centrifuged at 16,000× g for 10 min and supernatants filtered through a membrane filter (pore size; 0.22 μm). Filtrates were diluted in 85% acetonitrile and silybin concentrations analyzed using a liquid chromatography-tandem mass spectrometry (LC-MS/MS) system.

increase in silymarin solubility in the presence of excipient: highest increase
Substance: vitamin E-D-α-tocopheryl polyethylene glycol 1000 succinate [TPGS]
